Results published in patent publication US11186564B2, “Dual NAV1.2/5HT2a inhibitors for treating CNS disorders” (Sunovion Pharmaceuticals Inc., priority 2016, dated 2021).

Amino acid sequences for entries named in this document (tags omitted).
UniProt Q99250, whole entry: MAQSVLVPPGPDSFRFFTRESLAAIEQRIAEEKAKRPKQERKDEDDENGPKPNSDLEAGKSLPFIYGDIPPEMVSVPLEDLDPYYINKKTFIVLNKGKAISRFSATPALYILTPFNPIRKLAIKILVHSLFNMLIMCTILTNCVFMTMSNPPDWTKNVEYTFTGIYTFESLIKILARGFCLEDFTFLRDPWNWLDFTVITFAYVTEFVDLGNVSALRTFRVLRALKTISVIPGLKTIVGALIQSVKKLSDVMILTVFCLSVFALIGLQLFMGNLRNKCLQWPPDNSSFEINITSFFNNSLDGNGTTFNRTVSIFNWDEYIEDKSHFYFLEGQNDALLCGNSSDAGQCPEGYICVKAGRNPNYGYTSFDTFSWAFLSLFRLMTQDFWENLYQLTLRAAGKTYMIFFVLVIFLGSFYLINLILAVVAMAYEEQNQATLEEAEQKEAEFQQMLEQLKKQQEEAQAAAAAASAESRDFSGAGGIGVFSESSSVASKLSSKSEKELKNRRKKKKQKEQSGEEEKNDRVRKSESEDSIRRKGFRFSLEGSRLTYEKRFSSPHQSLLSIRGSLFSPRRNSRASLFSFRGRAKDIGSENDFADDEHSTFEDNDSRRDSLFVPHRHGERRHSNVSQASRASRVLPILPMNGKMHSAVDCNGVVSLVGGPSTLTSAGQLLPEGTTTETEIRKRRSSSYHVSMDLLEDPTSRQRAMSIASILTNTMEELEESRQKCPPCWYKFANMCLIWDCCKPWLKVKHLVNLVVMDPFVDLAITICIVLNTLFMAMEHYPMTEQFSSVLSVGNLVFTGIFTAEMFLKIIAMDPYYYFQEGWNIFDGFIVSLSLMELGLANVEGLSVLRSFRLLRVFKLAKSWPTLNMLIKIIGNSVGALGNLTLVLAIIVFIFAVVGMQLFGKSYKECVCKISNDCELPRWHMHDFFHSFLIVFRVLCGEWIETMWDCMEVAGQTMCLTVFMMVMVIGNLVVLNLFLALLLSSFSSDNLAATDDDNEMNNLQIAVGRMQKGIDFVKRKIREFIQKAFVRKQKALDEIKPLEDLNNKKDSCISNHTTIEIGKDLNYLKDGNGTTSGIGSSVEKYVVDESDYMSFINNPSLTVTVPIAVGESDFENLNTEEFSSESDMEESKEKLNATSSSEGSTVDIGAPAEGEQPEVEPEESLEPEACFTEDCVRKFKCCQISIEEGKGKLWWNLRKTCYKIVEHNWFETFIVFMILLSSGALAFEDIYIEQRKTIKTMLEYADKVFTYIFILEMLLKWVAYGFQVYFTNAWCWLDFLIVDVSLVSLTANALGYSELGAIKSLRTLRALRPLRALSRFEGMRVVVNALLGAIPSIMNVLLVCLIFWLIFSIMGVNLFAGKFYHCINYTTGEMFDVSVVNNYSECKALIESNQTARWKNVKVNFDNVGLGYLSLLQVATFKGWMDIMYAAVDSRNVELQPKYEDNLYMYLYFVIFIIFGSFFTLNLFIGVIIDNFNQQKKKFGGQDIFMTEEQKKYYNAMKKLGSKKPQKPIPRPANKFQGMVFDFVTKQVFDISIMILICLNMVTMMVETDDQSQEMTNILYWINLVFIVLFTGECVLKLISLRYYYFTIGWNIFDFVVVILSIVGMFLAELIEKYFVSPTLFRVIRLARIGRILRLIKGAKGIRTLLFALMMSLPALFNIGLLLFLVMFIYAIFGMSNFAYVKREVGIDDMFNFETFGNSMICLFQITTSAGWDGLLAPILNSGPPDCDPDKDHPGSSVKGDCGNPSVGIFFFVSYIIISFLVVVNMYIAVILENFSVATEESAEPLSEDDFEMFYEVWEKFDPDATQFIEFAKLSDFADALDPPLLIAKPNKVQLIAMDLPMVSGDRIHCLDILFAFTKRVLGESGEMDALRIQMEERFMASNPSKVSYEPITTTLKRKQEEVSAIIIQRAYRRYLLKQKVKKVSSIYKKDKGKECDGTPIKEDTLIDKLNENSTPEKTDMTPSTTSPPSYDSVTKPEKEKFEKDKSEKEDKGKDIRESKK

Molecular target: human sodium channel NaV1.2 (Homo sapiens, UniProt Q99250)
Assay: NaV1.2 inhibition, automated patch-clamp (Q-Patch HTX), slow inactivated state (state C)
Format: cell-based
Conditions: IC50 (μM) for NaV1.2 slow inactivated state
Description: In vitro method for NaV1.2 inhibition assays: The methods utilized to assess the inhibitory activity of compounds on NaV1.2 were based on the methods described by Liu et al. [Liu Y, Beck E J, & Flores C M (2011): Validation of a patch clamp screening protocol that simultaneously measures compound activity in multiple states of the voltage-gated sodium channel Nav1.2. Assay Drug Development Technology 9, 628-634]. For these electrophysiology assays, a cell line (Chinese Hamster Ovarian K-1 cells (CHO K-1)) engineered to stably express human sodium channel NaV1.2 was purchased from Millipore Corporation (catalog no. CYL3023). The electrophysiology measurements were performed using automated patch-clamp methods on a Q-Patch HTX instrument by scientists at Evotec AG under contract with Sunovion.
The solutions utilized for the Qpatch experiments were similar buffered solutions to those described by Liu et al. [Liu Y, Beck E J, & Flores C M (2011)]. […]
Based upon results from studies of the fast, slow and total inactivation characteristics of the human Nav1.2 channel, a voltage protocol involving a sequence of consecutive pulses of current was used to measure channel activity in several states [Liu Y, Beck E J, & Flores C M (2011)]. […] Comparison of activity after addition of test compounds or reference compounds with activity after addition of vehicle only provided a measure of percent remaining activity from which percent inhibition was calculated. […] A slight modification of this protocol was utilized to provide measurements as a function of compound concentration, which enabled IC50 values to be determined. IC50 values were calculated by non-linear least squares regression of the data (percent inhibition of ion channel NaV1.2 activity in the slow inactivated state) onto equation (1): % inhibition=100%/(1+(IC50/[compound]) equation (1) […]

CCN(CC)CC(=O)Nc1c(C)cccc1C [lidocaine, reference compound]
IC50 (Test 1, reference compound, Test 1): 33 µM | IC50 (Test 2, reference compound, Test 2): 51 µM | IC50 (Test 3, reference compound, Test 3): 56 µM
